The record followed here is BindingDB's records for doi:10.1016/0896-6273(93)90149-l (The Scripps Research Institute, 1993).

Protein sequences, listed by entry. Tags and fused reporters are not part of them.
UniProt P19327, whole entry: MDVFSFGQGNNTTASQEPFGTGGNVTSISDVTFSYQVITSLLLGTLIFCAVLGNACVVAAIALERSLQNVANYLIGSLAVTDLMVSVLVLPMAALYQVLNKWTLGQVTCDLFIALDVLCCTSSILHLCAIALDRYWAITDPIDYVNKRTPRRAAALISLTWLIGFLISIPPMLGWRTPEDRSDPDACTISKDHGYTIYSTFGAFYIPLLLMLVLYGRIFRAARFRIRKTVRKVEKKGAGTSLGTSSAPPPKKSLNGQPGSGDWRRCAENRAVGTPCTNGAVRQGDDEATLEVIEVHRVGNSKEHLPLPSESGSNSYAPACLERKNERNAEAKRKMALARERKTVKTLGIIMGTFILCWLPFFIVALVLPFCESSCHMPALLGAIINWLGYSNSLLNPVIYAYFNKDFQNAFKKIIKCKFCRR

The assay has as its target 5-hydroxytryptamine receptor 1A (Rattus norvegicus, UniProt P19327).

The structures appear in SMILES notation.

Compound `NCCc1c[nH]c2ccc(O)cc12` [[3H]-5-HT] had an inhibition constant Ki of 0.134 µM.

As usually defined, the Ki is the equilibrium dissociation constant of an inhibitor or competing ligand from its target. Low values mean higher affinity, high ones lower affinity.
